Nrf2 inh: inhibitors of Nrf2 signaling. hit rate 2.1% among 360,000. A549 ARE-Fluc reporter, luciferase luminescence, 18-24 h. Potency, µM (top dose mostly 46 µM), hits mostly inhibitors; also: nearly all actives have a fitted effect of over 60% in size
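In this cell-based qHTS, ARE-driven firefly luciferase in A549 cells reports Nrf2 activity; the luminescent signal after BugLite lysis is the measured value, with a prior CellTiter-Fluor read for cell health.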
miR-21 FLuc: miR-21 reporter, rising signal; Potency, µM (titrated, usually from 38.3 µM); AID 2288; 340,000 tested, under 10 active; HeLa miR-21 FLuc reporter, luciferase, 48 h; active = well fitted rising curve with a large enough effect; inconclusive = small, poorly fitted or top-dose-only effect; inactive = no such curve, though single readings can be large or run the other way;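 note: miR-21 action dims this reporter so a rising signal means less miR-21 action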
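Luminescence from a firefly luciferase reporter carrying a miR-21 binding site downstream, stably expressed under a CMV promoter in HeLa cells that make miR-21 endogenously, reports miRNA modulation after 48 h compound exposure up to approximately 40uM final.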
p53 reactivation: mutant p53 re-activation in reporter cells | Potency, µM (doses to about 92.2 µM), most hits filed as activators | hit rate 0.063% among 320,000 | H1299 p53-A138V BP100-luciferase reporter, luminescence, 24 h; also: nearly all actives have a fitted effect of over 45% in size
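H1299 (p53-null), stable ts p53-A138V + BP100-Luc; 1000 cells/well, Opti-MEM/10% FBS; cpd 4 pt, 1:5; 24 h, 37 deg C, 5% CO2; detection reagent 10 min RT; luminescence.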
Nrf2 ARE act: Nrf2 pathway activation; hit rate 0.31% among 410,000; AID 624171; AREc32 ARE-luciferase reporter (MCF7-derived line), luminescence, 24 h; Potency, µM (highest dose often 46.1 µM), most hits filed as activators; also: nearly all actives have a fitted effect of over 65% in size
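ARE activation measured as luciferase luminescence (Steady-Glo, 30 min RT) in AREc32_Fluc cells after 24 hr compound exposure at 37 deg C, 5% CO2; cells seeded overnight at 1000/well in OPTI-MEM, 5% FBS.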
ClpP mod: qHTS Assay for Activators of ClpP | AID 651965, 2013 | Potency, µM (top dose mostly 57.5 µM) | purified B. subtilis ClpP, FRET peptide cleavage, 20 min | ATP-dependent Clp protease proteolytic subunit (Bacillus subtilis (strain 168)), P80244 | hit rate 1.9% among 340,000; active = well fitted falling curve with a large enough effect; inconclusive = small, poorly fitted or top-dose-only effect; inactive = no such curve, though single readings can be large or run the other way; also: the source files actives as falling curves though it sought activators and does not explain the sign; nearly all actives have a fitted effect of over 65% in size
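Purified B. subtilis ClpP, 10 microg/mL final in Tris/HCl pH8 with KCl, BSA, glycerol and Tween-20, cleaved an Abz/nitrotyrosine-quenched decapeptide. Fluorescence (ex 320, em 430) was read at 0 and 20 min at room temperature. Delta was normalized to 5.8 microM ADEP and DMSO/no-enzyme controls.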
A549 tox-1: counter-screen for Nrf2 inhibitors: cytotoxicity in A549 cells. Potency, µM (series often up to 46 µM), actives largely listed as inhibitors. A549 ARE-Fluc cells, CellTiter-Fluor viability, 18-24 h. AID 504648. hit rate 0.16% among 390,000
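A549 ARE-Fluc cells in 5% FBS OPTI-MEM, 5000 cells/well, rested 2 h then exposed to compounds in concentration-response for 18-24 h at 37 °C. Viability by CellTiter-Fluor fluorescence (Ex 405/Em 525) after 30 min; luciferase luminescence (BugLite, 15 min, RT) read afterwards.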
FLuc enzyme inh: counter-screen for Nrf2 inhibitors: firefly luciferase enzyme inhibition. hit rate 4% among 1,400. shares compounds with Nrf2 inh. AID 720522. Potency, µM (titrated, usually from 57.5 µM), hits mostly inhibitors. purified firefly luciferase, luminescence inhibition; also: nearly all actives have a fitted effect of over 65% in size
A549 tox-2: A549 cytotoxicity, Nrf2 inhibitor counterscreen | shares compounds with Nrf2 inh | A549 ARE-Fluc cells, cytotoxicity counterscreen | Potency, µM (highest dose often 46.1 µM), usual class: inhibitors | hit rate 2% among 1,400 | AID 720523;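 also: cells exposed to compounds for 18 to 24 hours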
ARE-Fluc inh: confirmation of Nrf2 inhibitors in A549 ARE reporter cells | shares compounds with Nrf2 inh | A549 ARE-firefly luciferase reporter, luminescence | Potency, µM (series often up to 46.1 µM), actives largely listed as inhibitors | hit rate 74% among 1,400; also: nearly all actives have a fitted effect of over 65% in size
A number is an active result; [ ] = remark or other dose. In the library only some 3.7% were active in any assay of this set; here they are far more common. Unless noted, calls follow the shape of the dose curve; as a rule, active = well fitted curve in the direction sought with a large enough effect; inconclusive = small, poorly fitted or top-dose-only effect, or another doubt; inactive = no such curve, though single readings can be large; an effect the other way counts as inactive or inconclusive.

For COc1ccc(C(O)c2nc3ccccc3n2C)cc1OC (stereo not given) the results were Nrf2 inh 3.7µM, miR-21 FLuc inactive, p53 reactivation inactive, Nrf2 ARE act inactive, ClpP mod inactive, A549 tox-1 inactive[1.84 µM], FLuc enzyme inh inactive, A549 tox-2 inactive and ARE-Fluc inh inconclusive.
Screening CCc1ccc(C(O)c2ncc(-c3ccccc3F)[nH]2)cc1 (stereo not given) returned Nrf2 ARE act inactive[9.22 µM] and ClpP mod inactive.
For O=c1ccncn1C1OC(CO)C(O)C1O (stereo not given) the results were Nrf2 inh inactive, Nrf2 ARE act inactive, ClpP mod inactive and A549 tox-1 inactive.
`N=c1ccn2c(n1)OC1C(O)[C@@H](CO)O[C@H]12` (stereo not given in full) gave Nrf2 inh 0.16µM, A549 tox-1 inactive, FLuc enzyme inh inactive and A549 tox-2 inactive.
Screening COc1ccc(CCNc2ncnc3c2c(C)c(C)n3CCO)cc1OC returned Nrf2 inh inconclusive, miR-21 FLuc inactive, p53 reactivation inactive, Nrf2 ARE act inactive, ClpP mod inactive and A549 tox-1 inactive.
For COc1ccc(CCNc2ncnc3c2oc2ccccc23)cc1OC the results were Nrf2 inh 5.2µM, miR-21 FLuc inconclusive, p53 reactivation inactive, Nrf2 ARE act inactive, ClpP mod inactive, A549 tox-1 inactive, FLuc enzyme inh inactive, A549 tox-2 inactive and ARE-Fluc inh 4.1µM.
Screening c1ccc2c(c1)OCC(CNc1ncnc3sccc13)O2 (stereo not given) returned Nrf2 inh 1.5µM, miR-21 FLuc inactive, p53 reactivation inconclusive, Nrf2 ARE act inactive, ClpP mod inactive, A549 tox-1 inactive, FLuc enzyme inh inactive, A549 tox-2 inactive and ARE-Fluc inh 1.2µM.
`COc1ccc(CCNc2ncnc3sccc23)cc1OC` gave Nrf2 inh 0.58µM, miR-21 FLuc inactive, p53 reactivation inactive, Nrf2 ARE act inactive, ClpP mod inactive, A549 tox-1 inactive, FLuc enzyme inh inactive, A549 tox-2 inactive and ARE-Fluc inh 0.52µM.
Screening COc1ccccc1CNc1ncnc2sccc12 returned Nrf2 inh 3.3µM, miR-21 FLuc inactive, p53 reactivation inactive, Nrf2 ARE act inactive, A549 tox-1 inactive, FLuc enzyme inh inactive, A549 tox-2 inactive and ARE-Fluc inh 4.1µM.
Screening Cc1cc(C)c(NC(=O)c2ncoc2-c2ccco2)c(C)c1 returned miR-21 FLuc inactive, Nrf2 ARE act inactive, ClpP mod inactive and A549 tox-1 inactive.
`CCOC(=O)c1c(C)[nH]c(C)c1S(=O)(=O)N1CCCC(C(=O)N2CCN(c3cccc(Cl)c3)CC2)C1` (stereo not given) gave miR-21 FLuc inconclusive, Nrf2 ARE act inactive, ClpP mod inactive and A549 tox-1 inactive.
For O=C(O)C1C=Cc2ccccc2N1C(=O)c1ccccc1 (stereo not given) (tested in a mixture with another compound) the results were Nrf2 inh inactive, Nrf2 ARE act inactive, ClpP mod inactive and A549 tox-1 inactive.
For CCOc1ccc(C(=O)COC(=O)Cn2[nH]c(=O)c3ccccc3c2=O)cc1 the results were Nrf2 ARE act inactive and ClpP mod inactive.
For CN(C)c1ccc(CNc2ncnc3sccc23)cc1 the results were Nrf2 inh 4.6µM, miR-21 FLuc inactive, p53 reactivation inactive, Nrf2 ARE act inactive, A549 tox-1 inactive, FLuc enzyme inh inactive, A549 tox-2 inactive and ARE-Fluc inh 12µM.
Fc1ccccc1CNc1ncnc2sccc12 was read as Nrf2 inh 4.1µM, miR-21 FLuc inactive, p53 reactivation inactive, Nrf2 ARE act inactive, A549 tox-1 inactive, FLuc enzyme inh inactive, A549 tox-2 inactive and ARE-Fluc inh 5.2µM.
`CCCC[C@@H]1CCCO[C@@](C(=O)NCCOC)(C(F)(F)F)C1` gave Nrf2 inh inactive and A549 tox-1 inactive.
COc1ccccc1C(=O)N1CCN(Cc2ccc3c(c2)OCO3)CC1 was read as Nrf2 inh inactive, miR-21 FLuc inactive, p53 reactivation inactive, Nrf2 ARE act inactive, ClpP mod inactive and A549 tox-1 inactive.
`CCOc1ccccc1C(=O)NCC(=O)N1CCN(Cc2ccc3c(c2)OCO3)CC1` gave Nrf2 inh 4.6µM, p53 reactivation inactive, Nrf2 ARE act inactive, ClpP mod inactive, A549 tox-1 inactive, FLuc enzyme inh inactive, A549 tox-2 inactive and ARE-Fluc inh 5.2µM.
COc1ccc(NC(=O)N2CCOc3ccc(Cl)cc32)cc1 was read as Nrf2 inh inactive, miR-21 FLuc inactive, Nrf2 ARE act inactive, ClpP mod inactive and A549 tox-1 inactive.
`CN(Cc1ccccc1)C(=O)c1ccc2nc([C@@H]3O[C@H](CO)[C@H](O)[C@H](O)[C@H]3O)[nH]c2c1` gave Nrf2 ARE act inactive and ClpP mod inactive.
`CCN(Cc1cccc(S(=O)(=O)O)c1)c1ccc(C(=C2C=CC(=[N+](CC)Cc3cccc(S(=O)(=O)O)c3)C=C2)c2ccc(O)cc2S(=O)(=O)O)cc1` gave ClpP mod inactive, FLuc enzyme inh 9.5µM, A549 tox-2 inconclusive and ARE-Fluc inh 8.2µM.
For CCN(Cc1cccc(S(=O)(=O)O)c1)c1ccc(C(=C2C=CC(=[N+](CC)Cc3cccc(S(=O)(=O)O)c3)C=C2)c2ccccc2S(=O)(=O)[O-])cc1 the results were ClpP mod inactive.
For COc1ccc(CCN(C)c2ccc(S(=O)(=O)N3CCCC3)cc2[N+](=O)[O-])cc1OC the results were Nrf2 inh inconclusive, miR-21 FLuc inactive, p53 reactivation inactive, Nrf2 ARE act inactive, ClpP mod inactive and A549 tox-1 inactive.
For COc1ccc(CN(C)c2ccc(S(=O)(=O)N3CCN(C)CC3)cc2[N+](=O)[O-])cc1OC the results were Nrf2 inh 1.3µM, p53 reactivation inactive, Nrf2 ARE act inactive, ClpP mod inactive, A549 tox-1 inactive, FLuc enzyme inh inactive, A549 tox-2 inactive and ARE-Fluc inh inconclusive.
CC1(C(=O)NS(=O)(=O)c2ccccc2)CCN1C(=O)CC1CC1 (stereo not given) was read as Nrf2 ARE act inactive and ClpP mod inactive.

High-throughput results as filed in PubChem.
